Data on 1 compound can be found in paper PMC8691691 (ACS Chemical Neuroscience, 2021).

The target of one experiment is T1, GlyT2 F478Y mutant (Rattus norvegicus, UniProt P58295, F478Y).
T1 construct: expressed in transfected cells; host or cells: COS7
T1 sequence (P58295 1-799 F478Y): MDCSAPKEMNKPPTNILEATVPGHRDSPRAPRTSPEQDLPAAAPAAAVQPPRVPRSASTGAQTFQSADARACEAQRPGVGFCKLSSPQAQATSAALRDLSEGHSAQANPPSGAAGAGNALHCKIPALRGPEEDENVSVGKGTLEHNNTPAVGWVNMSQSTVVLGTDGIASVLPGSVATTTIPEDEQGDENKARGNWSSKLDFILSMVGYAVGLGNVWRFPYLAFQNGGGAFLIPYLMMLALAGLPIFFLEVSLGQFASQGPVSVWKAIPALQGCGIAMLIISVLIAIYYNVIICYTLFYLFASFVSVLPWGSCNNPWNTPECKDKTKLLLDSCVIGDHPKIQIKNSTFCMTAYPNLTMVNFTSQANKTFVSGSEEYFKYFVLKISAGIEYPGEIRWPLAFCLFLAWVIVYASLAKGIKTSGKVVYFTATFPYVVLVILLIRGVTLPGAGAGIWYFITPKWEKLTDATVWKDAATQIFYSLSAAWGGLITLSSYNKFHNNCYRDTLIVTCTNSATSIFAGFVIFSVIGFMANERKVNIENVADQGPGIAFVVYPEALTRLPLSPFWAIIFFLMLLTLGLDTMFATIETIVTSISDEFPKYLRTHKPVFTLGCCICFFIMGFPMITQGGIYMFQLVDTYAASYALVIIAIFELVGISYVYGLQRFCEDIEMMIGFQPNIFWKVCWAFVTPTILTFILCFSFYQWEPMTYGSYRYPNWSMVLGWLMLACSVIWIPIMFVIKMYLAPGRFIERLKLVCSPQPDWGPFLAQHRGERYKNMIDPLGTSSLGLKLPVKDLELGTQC
Put plainly: [3H]glycine transport by GlyT2 mutant in COS7 cells. Type of experiment: cell-based. The source says: (§1) To validate the predicted interactions between the inhibitors and GlyT2, we used systematic site-directed mutagenesis to construct substitution mutants of the potential residues involved in ligand binding. […] The GlyT2 residues predicted to interact with the inhibitors through its side chain were replaced by amino acids expected to force the loss of the interaction. In the cases where the interaction occurred through the backbone, the inserted amino acid sought to alter the disposition of the substituted residue to lose the coordination. […] Most of the mutants were active, although depicted lower activity as compared to the wild-type. […] These two residues are preserved throughout the NSS family, and Tyr-289 has proven to have an important structural role in stabilizing the unwound portion of the TM1 helix, whereas Tyr-209 has a key role in S1 site formation through its interaction with Ser-481.[25],[30],[33] Other residues such as Leu-213 or Ser-479 are involved in the formation of the glycine-binding site and Na^+-binding site, respectively.
(§2) Substitution mutants were generated with the QuikChange II Site-Directed Mutagenesis kit (Agilent Technologies, Santa Clara, CA, USA), using rGlyT2 or rGlyT1 subcloned in pCDNA3.[47] The complete coding region of all of the constructs was sequenced to verify that only the desired mutation had been introduced. Plasmids from two independent Escherichia coli colonies were expressed in eukaryotic cells as indicated below, and [^3H]glycine transport and/or immunodetection was performed for verification. COS7 cells were grown and transfected using Turbofect Transfection Reagent (Thermo Fisher Scientific, Waltham, MA, USA), following the manufacturer’s protocol (2 μL reagent/μg of DNA). Cells were incubated for 48 h at 37 °C until used.
(§3) COS7 cells were washed and incubated at 37 °C in HEPES-buffered saline (HBS, in mM: 150 NaCl, 10 HEPES-Tris, pH 7.4, 1 CaCl2, 5 KCl, 1 MgSO4, 10 glucose) containing 2 μCi/mL [2-^3H]glycine (1.6 TBq/mmol; PerkinElmer Life Sciences), at 10 μM final glycine concentration if not otherwise stated.[48] At the end of the desired time (usually 10 min), reactions were washed and terminated by aspiration. Protein concentration (Bradford) and [2-^3H]glycine levels (liquid scintillation, LKB 1219 Rackbeta) were determined. Glycine accumulation measured in mock-transfected cells was subtracted from that of the transporter-transfected cells and normalized by the protein concentration. Kinetic analyses were performed by varying glycine concentration in the uptake medium between 0.5 and 500 μM. […] The determinations of the IC50 were performed initially by diluting compounds by log steps with the vehicle from 1 nM to 1 μM. Then, exact IC50 values were determined by means of 8-point concentration curves performed over a suitable range using half log dilutions with the vehicle. A nonlinear curve fitting method was used to obtain IC50 values using Graphpad Prism software, version 6.0, Graphpad, San Diego, CA, USA.

For a further experiment, the target named is T2, GlyT2 W217F mutant (Rattus norvegicus, UniProt P58295, W217F).
T2 construct: expressed in transfected cells; host or cells: COS7
T2 sequence (P58295 1-799 W217F): T1 sequence (P58295 1-799 F478Y) with W217F, Y478F
Described as above. Type of experiment: cell-based.
Description: as §1, §2, §3

Changes are numbered by the printed parent chain.

`NCC(=O)O` [Gly, glycine]: the EC50 on GlyT2 F478Y mutant was found to be 290 ± 13 µM; on GlyT2 W217F mutant, 245 ± 27 µM.

For orientation: EC50 means the concentration giving half of the maximal effect. Lower therefore signals higher potency in that assay.
